These are literature values, as cited in US20170107257A1, “CYCLIC APELIN ANALOGS” (LANTHIOPEP B.V., priority 2014, published 2017).

The data set addresses T1, hAPJ (Homo sapiens, UniProt P35414).
T1 sequence (P35414 1-380): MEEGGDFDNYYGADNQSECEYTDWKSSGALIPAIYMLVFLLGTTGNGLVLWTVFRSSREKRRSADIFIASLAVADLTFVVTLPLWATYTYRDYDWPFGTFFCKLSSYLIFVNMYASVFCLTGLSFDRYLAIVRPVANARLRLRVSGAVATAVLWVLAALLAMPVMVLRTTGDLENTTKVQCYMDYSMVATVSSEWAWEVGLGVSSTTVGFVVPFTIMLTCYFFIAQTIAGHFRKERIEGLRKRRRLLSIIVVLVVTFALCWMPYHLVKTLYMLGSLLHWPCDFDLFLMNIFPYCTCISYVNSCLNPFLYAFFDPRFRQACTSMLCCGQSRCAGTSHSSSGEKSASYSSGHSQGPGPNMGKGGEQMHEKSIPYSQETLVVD
The conditions noted are these: read-out: EC50 activating the APJ receptor; cited from earlier work.

As for “apelin-36: bioactive peptide of 36 amino acids processed from the apelin pre-proprotein (LVQPRGSRNGPGPWQGGRRKFRRQRPRLSHKGPMPF; Apelin-36; UniProt Q9ULZ1 42-77, looked up)”, the EC50 was 0.02 µM.

Broadly, the EC50 is the concentration needed to bring the measured effect to its halfway point.
